The values that follow are results of earlier work, collected in paper PMC10026690 (Journal of medicinal chemistry, 2019).

The series relates to enteroids. As to conditions: doses up to 20 μM; ref 10 (dose by personal communication); cited from earlier work.

The structures appear in SMILES notation.

As to `C=C(c1ccccc1)[C@@]12CC[C@@H](O)[C@@H]1CC(CCCCCC)=C2c1ccccc1` [RJW100], the activity in enteroids entry is “inactive”.
